Measurements reported in US11951108B2, “Combination therapy for treating cancer” (Epizyme, Inc., priority 2016, dated 2024).

Assays:
COV644* = assay: In vitro combination study, ovarian cancer cell line COV644; settings: 7+3 model

CS(=O)(=O)CCNCc1ccc(-c2ccc3ncnc(Nc4ccc(OCc5cccc(F)c5)c(Cl)c4)c3c2)o1 [Lapatinib]
Synergy or antagonism of second agent with tazemetostat (IC50 shift of second agent) (COV504): C (key: B: Synergy > 4× IC50 shift; Synergy > 2× IC50 shift; No Effect; Antagonism; X: Not Tested)
Synergy or antagonism of second agent with tazemetostat (IC50 shift of second agent) (COV644*): B (Synergy > 4× IC50 shift)
